Reference: patent publication US20120190814A1, “Thiol Protecting Group” (UCL BUSINESS PLC, priority 2009, published 2012)

Amino acid sequences for entries named in this document (tags omitted). A change or cut given only in a name is not applied to a line headed by its entry.
UniProt P30874: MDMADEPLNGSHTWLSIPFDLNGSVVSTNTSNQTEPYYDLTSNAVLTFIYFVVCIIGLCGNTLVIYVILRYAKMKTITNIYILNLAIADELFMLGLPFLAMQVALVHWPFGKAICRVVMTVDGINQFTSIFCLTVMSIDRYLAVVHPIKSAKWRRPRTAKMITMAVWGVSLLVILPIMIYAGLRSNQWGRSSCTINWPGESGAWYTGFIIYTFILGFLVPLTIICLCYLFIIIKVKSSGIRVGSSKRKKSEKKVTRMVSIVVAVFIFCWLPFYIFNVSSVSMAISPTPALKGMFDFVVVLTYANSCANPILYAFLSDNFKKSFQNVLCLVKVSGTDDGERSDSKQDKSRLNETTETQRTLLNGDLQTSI

Target: T1, human somatostatin receptor 2 (Homo sapiens, UniProt P30874)
T1 construct: host or cells: HEK293 cells stably expressing Kir3.1 and Kir3.2A
Experiment: whole cell patch-clamp current recordings, retained biological activity of bridged somatostatins
Assay type: cell-based
Settings: HEK 293 cells expressing HKIR3.1/3.2 channel and human somatostatin receptor 2; 20 μM applied; cells clamped at −60 mV; compared with somatostatin
Description: HEK 293 cells expressing HKIR3.1/3.2 channel and human somatostatin receptor 2 were treated with these compounds, and whole cell patch-clamp current recordings taken.
Cell-culture methods and the generation of stable cell lines were carried out as described in J Biol Chem 275, 921-9 (2000). HEK293 cells (human embryonic kidney cell line) stably expressing Kir3.1 and Kir3.2A channels were maintained in minimum essential medium supplemented with 10% foetal calf serum and 727 μg of G418 (Invitrogen), at 37° C. in humidified atmosphere (95% O2, 5% CO2). Cells were transiently transfected with SSTR2 DNA (Missouri S&T cDNA Resource Center) along with pEGFP-N1 (Clontech) for visualization of transfected cells using epifluorescence. Transfections were performed with 5 μl of Fugene HD (Roche) and 800 ng SSTR2-DNA and 40 ng EGFP-DNA per 97 μl of cell culture medium (containing no serum or antibiotics).
Preparation of somatostatin and analogues for patch-clamp experiments Bridged somatostatins were prepared as described above. Somatostatin and its analogues were dialysed for 24 h at 4 ° C. in buffer (50 mM sodium phosphate, pH 6.2) to remove the organic solvents. After dialysis the concentration was determined and the peptides stored at 4 ° C. A final concentration of 20 μM somatostatin and analogues were used (dilution was done in the extracellular patch-clamp buffer).
Whole cell patch-clamp current recordings were performed with an Axopatch 200B amplifier (Axon Instruments) using fire-polished pipettes with a resistance of 3-4 MΩ pulled from filamented borosilicated glass capillaries (Harvard Apparatus, 1.5 mm OD×1.17 mm ID). Data was acquired and analysed via a Digidata 1322A interface (Axon Instruments) and pCLAMP software (version 8.1, Axon Instruments). A fast perfusion system was used to apply somatostatin and analogues (Rapid Solution Changer, RSC-160, Bio-Logic France). Cells were clamped at −60 mV. […] For each cell it was assessed if flow artifacts resulting from the pressure of drug application were present. […]

Substance | activation of GIRK currents (current amplitude)
fluorescein dibromomaleimide-bridged analogue: somatostatin bridged with N-fluorescein-dibromomaleimide | robust activation of GIRK currents in an amplitude comparable to somatostatin iteslf
dibromomaleimide bridged analogue: somatostatin whose reduced disulfide cysteines are bridged by reaction with dibromomaleimide | robust activation of GIRK currents in an amplitude comparable to somatostatin iteslf
PEGylated-dibromomaleimide bridged analogue: somatostatin bridged with an N-PEG dibromomaleimide derivative | robust activation of GIRK currents in an amplitude comparable to somatostatin iteslf
